pIC50: −log10 of the molar value.
Target: Cholinesterase (Homo sapiens, UniProt P06276)

Sequences of proteins named here, by UniProt entry; tags and fusion partners are left off.
UniProt P06276, whole entry: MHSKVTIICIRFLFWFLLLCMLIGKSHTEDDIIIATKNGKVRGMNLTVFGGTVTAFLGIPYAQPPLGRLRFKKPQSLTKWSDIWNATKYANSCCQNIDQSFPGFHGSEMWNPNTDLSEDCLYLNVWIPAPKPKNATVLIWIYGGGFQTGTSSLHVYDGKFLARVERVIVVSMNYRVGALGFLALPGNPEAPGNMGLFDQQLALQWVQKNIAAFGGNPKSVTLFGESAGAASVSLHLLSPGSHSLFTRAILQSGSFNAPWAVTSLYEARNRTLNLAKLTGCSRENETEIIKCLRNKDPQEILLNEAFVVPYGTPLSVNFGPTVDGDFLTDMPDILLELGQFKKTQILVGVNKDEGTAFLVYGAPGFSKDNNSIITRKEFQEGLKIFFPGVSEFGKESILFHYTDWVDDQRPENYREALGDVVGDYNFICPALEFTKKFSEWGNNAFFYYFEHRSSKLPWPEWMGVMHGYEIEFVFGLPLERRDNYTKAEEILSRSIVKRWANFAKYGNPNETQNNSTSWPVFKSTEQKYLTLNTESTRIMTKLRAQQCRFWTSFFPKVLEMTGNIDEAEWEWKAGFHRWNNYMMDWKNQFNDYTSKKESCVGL

For `CCN(C)C(=O)Oc1cccc([C@H](C)N(C)C)c1` [RIVASTIGMINE], the pIC50 was 7.52.

— ChEMBL document CHEMBL1148814, “Novel class of quinone-bearing polyamines as multi-target-directed ligands to combat Alzheimer's disease” (J Med Chem, 2007)
